Literature values as cited in patent US5866346A (priority 1997, dated 1999).
pKi: −log10 of the molar value.

Amino acid sequences for entries named in this document (tags omitted). A change or cut given only in a name is not applied to a line headed by its entry.
UniProt P33534: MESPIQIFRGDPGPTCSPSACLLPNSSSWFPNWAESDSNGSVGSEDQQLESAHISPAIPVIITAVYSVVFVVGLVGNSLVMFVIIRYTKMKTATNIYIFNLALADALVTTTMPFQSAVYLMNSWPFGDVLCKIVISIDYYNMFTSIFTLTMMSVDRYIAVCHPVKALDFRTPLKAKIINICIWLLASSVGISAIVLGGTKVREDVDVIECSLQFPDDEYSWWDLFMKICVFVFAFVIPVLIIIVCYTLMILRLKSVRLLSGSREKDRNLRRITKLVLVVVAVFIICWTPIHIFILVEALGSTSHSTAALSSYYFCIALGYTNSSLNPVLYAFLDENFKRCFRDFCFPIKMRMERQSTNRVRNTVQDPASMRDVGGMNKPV

Molecular target: kappa opioid receptor (KOR) (Mus musculus, UniProt P33534)
Settings: read-out: KOR (Ki) Mouse (35); cited from earlier work

CC[C@H](C)[C@H](NC(=O)[C@H](CCCNC(=N)N)NC(=O)[C@H](CCCNC(=N)N)NC(=O)[C@H](CC(C)C)NC(=O)[C@H](Cc1ccccc1)NC(=O)CNC(=O)CNC(=O)[C@@H](N)Cc1ccc(O)cc1)C(=O)N[C@@H](CCCNC(=N)N)C(=O)N1CCC[C@H]1C(=O)N[C@@H](CCCCN)C(=O)N[C@@H](CC(C)C)C(=O)N[C@@H](CCCCN)C(=O)N[C@@H](Cc1c[nH]c2ccccc12)C(=O)N[C@@H](CC(=O)O)C(=O)N[C@@H](CC(N)=O)C(=O)N[C@@H](CCC(N)=O)C(=O)O [dyn A, dynorphin A]
pKi: 9.40
